The results in this text go back to ChEMBL document CHEMBL5247621, “From dopamine 4 to sigma 1: Synthesis, SAR and biological characterization of a piperidine scaffold of σ1 modulators” (Eur J Med Chem, 2022).

Sequences of proteins named here, by UniProt entry; tags and fusion partners are left off.
UniProt Q5BJF2, whole entry: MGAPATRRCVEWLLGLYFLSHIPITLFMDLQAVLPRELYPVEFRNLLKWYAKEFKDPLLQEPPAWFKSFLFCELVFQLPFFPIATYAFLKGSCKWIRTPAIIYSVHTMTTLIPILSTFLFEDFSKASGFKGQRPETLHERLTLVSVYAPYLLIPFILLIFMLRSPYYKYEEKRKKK

In the assay the target is Sigma intracellular receptor 2 (Homo sapiens, UniProt Q5BJF2). In words: Displacement of [3H]DTG from sigma-2 receptor in HEK293 cell membrane assessed as inhibition constant. The class given is cell membranes. In outline: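 Competitive radioligand binding in membranes harvested from HEK293 cells, with one radioligand per target: [3H]N-methylspiperone for D2, D3 and D4; [3H]SCH23390 for D1 and D5; [3H]pentazocine for σ1; [3H]DTG for σ2. Ki derived from inhibition of binding, each run in triplicate.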

Regarding `Cc1c(Cl)cccc1NC(=O)CN1CCC(OCc2ccc(F)c(F)c2)CC1`, the inhibition constant Ki (usually a dissociation constant, usually derived from enzyme kinetics or from competition with a known ligand) was determined as 299 nM.
